The results in this text go back to ChEMBL document CHEMBL4680180, “Discovery of 3-((dimethylamino)methyl)-4-hydroxy-4-(3-methoxyphenyl)-N-phenylpiperidine-1-carboxamide as novel potent analgesic” (2020).

A value given as a limit tells only on which side of the number the result lay.

The test system of assay [1] is Mus musculus. The assay can be described thus: Antinociceptive activity in Kunming mouse assessed as maximum possible effect by measuring latency threshold at 10 mg/kg, ip by hot plate test relative to control. In general terms: Hot-plate and tail-flick tests time the reaction to a heat stimulus.
Assay [2] concerns Mus musculus. The assay can be described thus: Antinociceptive activity in Kunming mouse assessed as maximum possible effect by measuring latency threshold at 50 mg/kg, ip by hot plate test relative to control.

Take `CN(C)CC1CN(C(=O)N(C)c2cccc(Cl)c2)CCC1(O)c1ccccc1.Cl` (centres undefined): in the assay on Mus musculus [1], the MPE was below 100%.
Same read-out and setting: as for `CN(C)CC1CN(C(=O)Nc2cccc(Cl)c2)CCC1(O)c1ccccc1.Cl` (centres undefined), the figure is below 100%; as for `CN(C)CC1CN(C(=O)Nc2ccccc2)CCC1(O)c1ccccc1.Cl` (centres undefined), 100%; as for `CN(C)CC1CN(C(=O)Nc2cc(Cl)c(Cl)c(Cl)c2)CCC1(O)c1ccccc1.Cl` (centres undefined), below 100%.
On the same count and under the same terms, the same measure for `C[C@H](NC(=O)N1CCC(O)(c2ccccc2)C(CN(C)C)C1)c1ccccc1.Cl` (some centres undefined): below 100%; for `CC(NC(=O)N1CCC(O)(c2ccccc2)C(CN(C)C)C1)C12CC3CC(CC(C3)C1)C2.Cl` (centres undefined): below 100%.
For `COc1cccc([C@@]2(O)CCCC[C@@H]2CN(C)C)c1`, in the assay with Mus musculus [2], the Activity was below 100%.
Take `CN(C)CC1CN(C(=O)Nc2ccc(F)c(Cl)c2)CCC1(O)c1ccccc1.Cl` (centres undefined): the MPE in the assay on Mus musculus [1] was below 100%.
Turning to `CN(C)CC1CN(C(=O)NC23CC4CC(CC(O)(C4)C2)C3)CCC1(O)c1ccccc1.Cl` (centres undefined), the MPE in the assay with Mus musculus [1] is below 100%.
As for `CN(C)CC1CN(C(=O)Nc2ccc(Cl)c(Cl)c2)CCC1(O)c1ccccc1.Cl` (centres undefined), the MPE in the assay on Mus musculus [1] was below 100%.
As to `CN(C)CC1CN(C(=O)NCc2ccccc2)CCC1(O)c1ccccc1.Cl` (centres undefined), the MPE in the assay with Mus musculus [1] was below 100%.
On the same count and under the same terms, as for `CN(C)CC1CN(C(=O)NC23CC4CC(CC(C4)C2)C3)CCC1(O)c1ccccc1.Cl` (centres undefined), the figure is below 100%.
Take `CN(C)CC1CN(C(=O)Nc2ccc3ccccc3c2)CCC1(O)c1ccccc1.Cl` (centres undefined): in the assay on Mus musculus [1], the MPE is below 100%.
Turning to `CN(C)CC1CN(C(=O)Nc2cc(C(F)(F)F)cc(C(F)(F)F)c2)CCC1(O)c1ccccc1.Cl` (centres undefined), in the assay on Mus musculus [1], the MPE was below 100%.
For the compound `COC(=O)c1sccc1NC(=O)N1CCC(O)(c2ccccc2)C(CN(C)C)C1.Cl` (centres undefined), in the assay on Mus musculus [1], the MPE is below 100%.
For `CN(C)CC1CN(C(=O)Nc2ccc(F)c(F)c2)CCC1(O)c1ccccc1.Cl` (centres undefined), in the assay with Mus musculus [1], the MPE was below 100%.
Same read-out and setting: as for `CN(C)CC1CN(C(=O)Nc2cccc(F)c2)CCC1(O)c1ccccc1.Cl` (centres undefined), the figure is 100%; as for `COC(=O)c1ccsc1NC(=O)N1CCC(O)(c2ccccc2)C(CN(C)C)C1.Cl` (centres undefined), below 100%; as for `CN(C)CC1CN(C(=O)Nc2ccc(Cl)cc2)CCC1(O)c1ccccc1.Cl` (centres undefined), below 100%.
